{"source": "patent US7258999B2", "about": "“PTH responsive gene” (Wyeth, priority 2002, dated 2007)", "system": "PAIGB expression in ROS 17/2.8 cells", "test": "Real time PCR of PAIGB expression in ROS 17/2.8 cells", "format": "cell-based, rat", "text": "Applicants performed multiplex real time PCR (TaqMan) analysis on previously DNAsed samples using gene specific probe and primers and 18S ribosomal RNA probe and primer sets purchased from Applied Biosystem. (Foster City, Calif.) The samples were DNAsed according to the protocol provided by Ambion (DNA-free kit). TaqMan probe and primers for PAIGB was identify using Primer Express computer program. The sequence for rat PAIGB TaqMan probe was 6FAM-5′[…] (SEQ ID NO: 16) forward and reverse primers were 5′[…] 3′ (SEQ ID NO:17) and 5′ […] 3′ (SEQ ID NO:18) respectively. The final concentrations for probes were 500 nM and 40 nM for PAIGB and 18S ribosomal RNA or GAPDH respectively. The concentrations of the primers were 500 nM for PAIGB forward and reversed primers while 18S primers were 10 and 20 nM for forward and reversed primer respectively or 40 nM for GAPDH primers. Standards for rat samples were made from rat tibia or brain RNA in the range of 250 ng to 0.1 ng, while standards for mouse specific TaqMan were made from mouse brain RNA and human standards from human brain RNA (Clonetech, Palo Alto, Calif.) spanning the same range of concentration. Primers and probes for mouse PAIGB were: forward 5′ […] 3′ (SEQ ID NO:19), reverse, 5′ […] 3′ (SEQ ID NO:20) anti-sense and probe 5′ 6FAM-[…] (SEQ ID NO:21). […]", "data": [{"molecule": "BMP2: bone morphogenic protein 2 (protein, UniProt P12643 283-396, looked up) Bone morphogenetic protein 2: QAKHKQRKRLKSSCKRHPLYVDFSDVGWNDWIVAPPGYHAFYCHGECPFPLADHLNSTNHAIVQTLVNSVNSKIPKACCVPTELSAISMLYLDENEKVVLKNYQDMVVEGCGCR", "values": [{"measurement": "induction of PAIGB expression after 24 hours of treatment", "setting": "300 ng/ml, 24 hours", "result": "did not induce"}, {"measurement": "effect on PAIGB expression after 4 hours of treatment", "setting": "4 hours, estrogen 10 nM, tamoxifen 0.1 μM, BMP2 300 ng/ml, calcitonin 5 ng/ml", "result": "did not have any effect"}]}]}
